Measurements reported in IntAct's records for PubMed 35512704.

B1: RAC-alpha serine/threonine-protein kinase (Homo sapiens), P31749 (parent)
chain: MSDVAIVKEGWLHKRGEYIKTWRPRYFLLKNDGTFIGYKERPQDVDQREAPLNNFSVAQCQLMKTERPRPNTFIIRCLQWTTVIERTFHVETPEEREEWTTAIQTVADGLKKQEEEEMDFRSGSPSDNSGAEEMEVSLAKPKHRVTMNEFEYLKLLGKGTFGKVILVKEKATGRYYAMKILKKEVIVAKDEVAHTLTENRVLQNSRHPFLTALKYSFQTHDRLCFVMEYANGGELFFHLSRERVFSEDRARFYGAEIVSALDYLHSEKNVVYRDLKLENLMLDKDGHIKITDFGLCKEGIKDGATMKTFCGTPEYLAPEVLEDNDYGRAVDWWGLGVVMYEMMCGRLPFYNQDHEKLFELILMEEIRFPRTLGPEAKSLLSGLLKKDPKQRLGGGSEDAKEIMQHRFFAGIVWQHVYEKKLSPPFKPQVTSETDTRYFDEEFTAQMITITPPDQDDSMECVDSERRPHFPQFSYSASGTA
partner: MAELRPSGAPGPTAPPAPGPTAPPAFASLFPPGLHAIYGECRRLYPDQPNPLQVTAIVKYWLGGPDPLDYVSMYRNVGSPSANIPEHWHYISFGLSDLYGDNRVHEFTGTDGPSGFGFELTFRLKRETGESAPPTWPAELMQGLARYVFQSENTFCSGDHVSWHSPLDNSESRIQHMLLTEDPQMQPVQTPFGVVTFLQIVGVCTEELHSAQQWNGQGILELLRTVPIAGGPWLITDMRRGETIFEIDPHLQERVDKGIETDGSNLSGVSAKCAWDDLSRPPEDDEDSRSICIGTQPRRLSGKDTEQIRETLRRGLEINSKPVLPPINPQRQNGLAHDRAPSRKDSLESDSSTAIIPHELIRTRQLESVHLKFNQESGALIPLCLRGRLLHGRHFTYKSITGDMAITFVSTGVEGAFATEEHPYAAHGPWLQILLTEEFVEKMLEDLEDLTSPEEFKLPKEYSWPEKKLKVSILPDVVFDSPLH
B2: RAC-alpha serine/threonine-protein kinase (Homo sapiens), P31749 (parent)
chain: B1 chain
partner: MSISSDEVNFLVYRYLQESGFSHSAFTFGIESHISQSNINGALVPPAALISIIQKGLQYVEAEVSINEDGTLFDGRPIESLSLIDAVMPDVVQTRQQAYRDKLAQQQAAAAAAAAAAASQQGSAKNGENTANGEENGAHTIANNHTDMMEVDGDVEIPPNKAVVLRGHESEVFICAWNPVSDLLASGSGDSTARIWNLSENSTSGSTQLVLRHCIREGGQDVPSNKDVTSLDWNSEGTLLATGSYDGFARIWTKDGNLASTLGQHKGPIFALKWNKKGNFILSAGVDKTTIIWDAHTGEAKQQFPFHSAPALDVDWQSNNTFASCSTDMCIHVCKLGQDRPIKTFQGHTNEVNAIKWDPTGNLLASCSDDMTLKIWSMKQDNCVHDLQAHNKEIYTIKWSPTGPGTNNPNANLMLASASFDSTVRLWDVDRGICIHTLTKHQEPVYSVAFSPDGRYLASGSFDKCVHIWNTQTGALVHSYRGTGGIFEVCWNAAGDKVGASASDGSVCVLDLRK
B3: RAC-alpha serine/threonine-protein kinase (Homo sapiens), P31749 (parent)
chain: B1 chain
partner: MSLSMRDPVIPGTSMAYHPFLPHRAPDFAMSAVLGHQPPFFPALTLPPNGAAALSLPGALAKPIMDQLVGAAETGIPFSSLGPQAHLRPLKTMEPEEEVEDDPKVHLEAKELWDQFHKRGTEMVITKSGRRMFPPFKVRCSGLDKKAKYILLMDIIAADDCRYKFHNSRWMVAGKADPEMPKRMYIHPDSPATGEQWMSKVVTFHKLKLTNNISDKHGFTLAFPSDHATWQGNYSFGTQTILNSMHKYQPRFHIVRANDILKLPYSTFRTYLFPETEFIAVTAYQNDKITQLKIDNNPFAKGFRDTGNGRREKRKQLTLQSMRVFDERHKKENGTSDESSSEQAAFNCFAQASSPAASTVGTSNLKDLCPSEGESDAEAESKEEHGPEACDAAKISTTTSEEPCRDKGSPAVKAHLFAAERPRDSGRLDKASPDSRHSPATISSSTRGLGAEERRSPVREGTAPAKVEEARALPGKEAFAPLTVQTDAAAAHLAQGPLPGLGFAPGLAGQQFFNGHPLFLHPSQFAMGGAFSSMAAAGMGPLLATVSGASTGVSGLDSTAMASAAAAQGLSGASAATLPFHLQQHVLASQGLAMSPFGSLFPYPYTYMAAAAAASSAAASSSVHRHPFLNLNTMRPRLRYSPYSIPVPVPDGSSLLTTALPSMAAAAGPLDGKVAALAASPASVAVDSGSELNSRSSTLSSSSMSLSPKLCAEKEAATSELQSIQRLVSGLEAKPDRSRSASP
B4: RAC-alpha serine/threonine-protein kinase (Homo sapiens), P31749 (parent)
chain: B1 chain
partner: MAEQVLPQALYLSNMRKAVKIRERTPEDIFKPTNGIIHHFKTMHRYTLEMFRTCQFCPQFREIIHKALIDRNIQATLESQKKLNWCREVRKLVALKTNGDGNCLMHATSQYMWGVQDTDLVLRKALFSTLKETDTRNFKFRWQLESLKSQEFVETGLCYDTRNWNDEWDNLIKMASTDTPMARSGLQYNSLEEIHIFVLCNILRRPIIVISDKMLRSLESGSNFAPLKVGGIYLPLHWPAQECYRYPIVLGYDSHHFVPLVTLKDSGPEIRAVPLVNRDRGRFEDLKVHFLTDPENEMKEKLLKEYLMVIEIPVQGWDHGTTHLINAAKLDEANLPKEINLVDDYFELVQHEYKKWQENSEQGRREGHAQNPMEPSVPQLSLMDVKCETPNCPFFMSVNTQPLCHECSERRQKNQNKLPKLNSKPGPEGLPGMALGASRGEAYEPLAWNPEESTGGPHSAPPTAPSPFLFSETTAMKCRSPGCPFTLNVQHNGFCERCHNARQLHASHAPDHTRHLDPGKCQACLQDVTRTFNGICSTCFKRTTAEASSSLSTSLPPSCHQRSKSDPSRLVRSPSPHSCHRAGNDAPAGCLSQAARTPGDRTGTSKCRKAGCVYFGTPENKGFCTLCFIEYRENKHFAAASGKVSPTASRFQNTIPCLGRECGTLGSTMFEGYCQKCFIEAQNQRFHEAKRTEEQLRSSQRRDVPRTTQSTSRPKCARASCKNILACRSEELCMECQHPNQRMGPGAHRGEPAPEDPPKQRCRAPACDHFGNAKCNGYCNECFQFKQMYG
B5: RAC-alpha serine/threonine-protein kinase (Homo sapiens), P31749 (parent)
chain: B1 chain
partner: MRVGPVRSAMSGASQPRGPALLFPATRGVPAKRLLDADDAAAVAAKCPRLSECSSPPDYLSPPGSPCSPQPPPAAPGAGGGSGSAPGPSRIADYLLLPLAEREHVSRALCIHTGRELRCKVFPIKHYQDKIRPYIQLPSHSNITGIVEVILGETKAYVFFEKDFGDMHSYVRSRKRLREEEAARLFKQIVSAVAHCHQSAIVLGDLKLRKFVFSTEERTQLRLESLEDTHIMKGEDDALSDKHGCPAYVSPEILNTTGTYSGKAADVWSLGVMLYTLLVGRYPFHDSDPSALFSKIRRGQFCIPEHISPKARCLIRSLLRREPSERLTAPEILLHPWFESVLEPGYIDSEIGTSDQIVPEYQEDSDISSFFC
B6: RAC-alpha serine/threonine-protein kinase (Homo sapiens), P31749 (parent)
chain: B1 chain
partner: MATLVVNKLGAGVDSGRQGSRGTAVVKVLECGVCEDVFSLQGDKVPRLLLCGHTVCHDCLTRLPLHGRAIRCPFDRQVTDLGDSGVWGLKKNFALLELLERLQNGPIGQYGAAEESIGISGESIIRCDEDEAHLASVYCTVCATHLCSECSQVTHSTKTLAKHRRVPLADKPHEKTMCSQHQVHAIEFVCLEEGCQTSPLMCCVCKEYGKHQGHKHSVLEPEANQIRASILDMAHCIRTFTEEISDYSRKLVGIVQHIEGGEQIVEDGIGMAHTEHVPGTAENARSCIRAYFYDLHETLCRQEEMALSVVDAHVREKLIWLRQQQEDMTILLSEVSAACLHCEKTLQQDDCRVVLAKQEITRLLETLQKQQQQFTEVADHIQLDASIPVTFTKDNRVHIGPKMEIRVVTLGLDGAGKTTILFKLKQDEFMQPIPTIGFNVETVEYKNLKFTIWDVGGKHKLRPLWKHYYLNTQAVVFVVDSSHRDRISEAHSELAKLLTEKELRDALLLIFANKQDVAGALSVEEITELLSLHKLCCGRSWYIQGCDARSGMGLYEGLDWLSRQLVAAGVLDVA

Variants of: B1
Settings: with sufu_human SUFU

| Variant | effect of a mutation on the interaction |
| --- | --- |
| E17K | with no effect |

Variants of: B2
Settings: with tbl1r_human TBL1XR1, Q9BZK7

| Variant | effect of a mutation on the interaction |
| --- | --- |
| E17K | with no effect |

Variants of: B3
Settings: with tbx3_human TBX3, O15119

| Variant | effect of a mutation on the interaction |
| --- | --- |
| E17K | with no effect |

Variants of: B4
Settings: with tnap3_human TNFAIP3, P21580

| Variant | effect of a mutation on the interaction |
| --- | --- |
| E17K | with no effect |

Variants of: B5
Settings: with trib1_human TRIB1, Q96RU8

| Variant | effect of a mutation on the interaction |
| --- | --- |
| E17K | with no effect |

Variants of: B6
Settings: with tri23_human TRIM23, P36406

| Variant | effect of a mutation on the interaction |
| --- | --- |
| E17K | with no effect |
